The values that follow come from patent US20220127585A1.

This assay deals with T1, B-Raf kinase, P15056.
T1 chain: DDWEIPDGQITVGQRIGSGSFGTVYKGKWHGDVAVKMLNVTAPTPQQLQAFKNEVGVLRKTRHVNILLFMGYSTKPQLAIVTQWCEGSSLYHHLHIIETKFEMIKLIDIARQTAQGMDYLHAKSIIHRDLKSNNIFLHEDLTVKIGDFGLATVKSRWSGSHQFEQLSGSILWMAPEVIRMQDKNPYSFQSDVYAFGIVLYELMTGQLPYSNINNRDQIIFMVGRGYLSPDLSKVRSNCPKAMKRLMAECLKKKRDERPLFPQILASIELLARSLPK
The assay is described as follows: ITC. Background: In ITC the heat of successive injections is recorded.

Take VLRKTRHVNILLFMG (modifications not checked) [SEQ ID NO: 17 (…)]: the Kd was found to be 0.35 µM.

As for GVLRKARHVNILLFMGYST (modifications not checked) [SEQ ID NO: 8], the Kd worked out at 14.9 µM.

In general, Kd refers to the free concentration of one partner at which half of the binding sites on the other are occupied at equilibrium, for simple one-to-one binding. Low values mean tighter binding, high ones weaker binding.
